For three molecules, IC50 results are on record in patent publication US11084814B2, “Pyrido[3, 4-d]pyrimidine derivative and pharmaceutically acceptable salt thereof” (Teijin Pharma Limited, priority 2016, dated 2021).

The chains behind the UniProt entries cited, without tags or fusion partners.
UniProt P11802, whole entry: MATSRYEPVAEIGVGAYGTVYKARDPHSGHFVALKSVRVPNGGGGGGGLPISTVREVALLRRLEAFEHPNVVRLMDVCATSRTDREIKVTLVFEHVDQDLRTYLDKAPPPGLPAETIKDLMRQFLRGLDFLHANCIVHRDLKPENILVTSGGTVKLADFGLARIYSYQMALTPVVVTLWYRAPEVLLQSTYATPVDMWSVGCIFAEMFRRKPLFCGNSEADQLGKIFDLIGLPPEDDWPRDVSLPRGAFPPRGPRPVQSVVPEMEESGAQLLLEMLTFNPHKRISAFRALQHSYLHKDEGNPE
UniProt P30281, whole entry partner: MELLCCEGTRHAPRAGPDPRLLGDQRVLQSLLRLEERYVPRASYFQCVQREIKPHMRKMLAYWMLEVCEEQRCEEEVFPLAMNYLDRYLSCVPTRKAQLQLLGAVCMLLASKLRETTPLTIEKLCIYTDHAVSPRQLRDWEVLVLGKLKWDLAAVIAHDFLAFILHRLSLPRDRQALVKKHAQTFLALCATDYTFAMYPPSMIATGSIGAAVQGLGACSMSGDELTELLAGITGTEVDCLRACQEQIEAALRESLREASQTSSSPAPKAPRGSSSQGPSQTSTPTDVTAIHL

One assay has as its target CDK2/cyclin A2 (Homo sapiens, UniProt P24941). The assay is described as follows: Human CDK2/cyclin A2 inhibitory activity (QS S Assist CDK2/Cyclin A2_FP Kit, IMAP fluorescent polarization). The note with it: read-out: CDK2 Activity symbol. On the procedure:
Human CDK2/Cyclin A2 Inhibitory Activity
Each compound was analyzed for CDK2/cyclin A2 inhibitory activity with an assay kit (QS S Assist CDK2/Cyclin A2_FP Kit, available from Carna Biosciences, Inc.). This assay kit determines kinase activity on the basis of the IMAP technology by Molecular Devices. Specifically, the kinase activity is determined through quantification of a variation in fluorescent polarization caused by binding of a kinase-phosphorylated fluorescent substance to an IMAP-binding reagent.
An assay buffer was prepared by 10-fold dilution of the 10× assay buffer attached to the kit with distilled water, and each solution was prepared with the assay buffer. The assay buffer contained 20 mM HEPES (pH 7.4), 0.01% Tween 20, and 2 mM dithiothreitol. A test compound solution was prepared by dilution of the test compound with dimethyl sulfoxide (DMSO) to a concentration 100 times higher than the final concentration and then 25-fold dilution with the assay buffer to a concentration four times higher than the final concentration. An ATP/substrate/Metal solution was prepared by five-fold dilution of the 5×ATP/substrate/Metal solution attached to the kit with the assay buffer. An enzyme solution was prepared by dilution of the CDK2/cyclin A2 attached to the kit with the assay buffer to a concentration twice higher than the final concentration (final concentration of CDK2/cyclin A2: 2.5 ng/well). A detection reagent was prepared by five-fold dilution of 5×IMAP-binding buffer A with distilled water and 400-fold dilution of the IMAP-binding reagent with the diluted buffer.
(§1) The test compound solution (5 μL/well) and the ATP/substrate/Metal solution (5 μL/well) were added to a 384-well plate, and the enzyme solution or the assay buffer (10 μL/well) was added to the plate (total amount of the reaction mixture: 20 μL/well) for initiation of enzymatic reaction. […] Subsequently, fluorescent polarization was determined with a microplate reader at an excitation wavelength of 485 nm and an emission wavelength of 535 nm. […]

A further assay deals with CDK4/cyclin D3 (Homo sapiens, UniProt P11802). Kind of assay: Human CDK4/cyclin D3 inhibitory activity (QS S Assist CDK4/Cyclin D3_FP Kit, IMAP fluorescent polarization). As to conditions: read-out: CDK4 Activity symbol. As for the experimental part:
Human CDK4/Cyclin D3 Inhibitory Activity
Each compound was analyzed for CDK4/cyclin D3 inhibitory activity with an assay kit (QS S Assist CDK4/Cyclin D3_FP Kit, available from Carna Biosciences, Inc.). This assay kit determines kinase activity on the basis of the IMAP technology by Molecular Devices. Specifically, the kinase activity is determined through quantification of a variation in fluorescent polarization caused by binding of a kinase-phosphorylated fluorescent substance to an IMAP-binding reagent.
Each solution was prepared with the 10× assay buffer attached to the kit or a separately prepared assay buffer having the same composition as the assay buffer attached to the kit. An assay buffer was prepared by 10-fold dilution of the 10× assay buffer with distilled water. The assay buffer contains 20 mM HEPES (pH 7.4), 0.01% Tween20, and 2 mM dithiothreitol. A test compound solution was prepared by dilution of the test compound with dimethyl sulfoxide (DMSO) to a concentration 100 times higher than the final concentration and then 25-fold dilution with the assay buffer to a concentration four times higher than the final concentration. An ATP/substrate/Metal solution was prepared by five-fold dilution of the 5×ATP/substrate/Metal solution attached to the kit with the assay buffer. An enzyme solution was prepared by dilution of the CDK4/cyclin D3 attached to the kit with the assay buffer to a concentration twice higher than the final concentration (final concentration of CDK4/cyclin D3: 12.5 to 25 ng/well). […]
as §1

For `C[C@@H](O)CN1CCN(Cc2ccc(Nc3ncc4cc([C@@H](C)O)nc(N5CCCCC5)c4n3)nc2)CC1`, the IC50 was more than 100 nM on CDK2/cyclin A2 and less than 10 nM on CDK4/cyclin D3.
On the same counts, the results for `C[C@@H](O)c1cc2cnc(Nc3ccc(N4CCNCC4=O)cn3)nc2c(C2CC2)n1` are more than 100 nM and less than 10 nM.
For the molecule `C[C@@H](O)c1cc2cnc(Nc3ccc(CN4CCN(CCO)CC4)cn3)nc2c(C2CC2)n1`, the figures for the IC50 on CDK2/cyclin A2 and on CDK4/cyclin D3 were more than 100 nM and 10 to 100 nM, respectively.
